Patent US20100113370A1, “METHODS AND COMPOUNDS FOR MODULATING INFLAMMATORY PROCESSES” (priority 2007, published 2010)

Protein sequences, listed by entry. Tags and fused reporters are not part of them. Lines headed by an entry give the natural chain unless they say otherwise; changes in a name come on top.
UniProt O15439: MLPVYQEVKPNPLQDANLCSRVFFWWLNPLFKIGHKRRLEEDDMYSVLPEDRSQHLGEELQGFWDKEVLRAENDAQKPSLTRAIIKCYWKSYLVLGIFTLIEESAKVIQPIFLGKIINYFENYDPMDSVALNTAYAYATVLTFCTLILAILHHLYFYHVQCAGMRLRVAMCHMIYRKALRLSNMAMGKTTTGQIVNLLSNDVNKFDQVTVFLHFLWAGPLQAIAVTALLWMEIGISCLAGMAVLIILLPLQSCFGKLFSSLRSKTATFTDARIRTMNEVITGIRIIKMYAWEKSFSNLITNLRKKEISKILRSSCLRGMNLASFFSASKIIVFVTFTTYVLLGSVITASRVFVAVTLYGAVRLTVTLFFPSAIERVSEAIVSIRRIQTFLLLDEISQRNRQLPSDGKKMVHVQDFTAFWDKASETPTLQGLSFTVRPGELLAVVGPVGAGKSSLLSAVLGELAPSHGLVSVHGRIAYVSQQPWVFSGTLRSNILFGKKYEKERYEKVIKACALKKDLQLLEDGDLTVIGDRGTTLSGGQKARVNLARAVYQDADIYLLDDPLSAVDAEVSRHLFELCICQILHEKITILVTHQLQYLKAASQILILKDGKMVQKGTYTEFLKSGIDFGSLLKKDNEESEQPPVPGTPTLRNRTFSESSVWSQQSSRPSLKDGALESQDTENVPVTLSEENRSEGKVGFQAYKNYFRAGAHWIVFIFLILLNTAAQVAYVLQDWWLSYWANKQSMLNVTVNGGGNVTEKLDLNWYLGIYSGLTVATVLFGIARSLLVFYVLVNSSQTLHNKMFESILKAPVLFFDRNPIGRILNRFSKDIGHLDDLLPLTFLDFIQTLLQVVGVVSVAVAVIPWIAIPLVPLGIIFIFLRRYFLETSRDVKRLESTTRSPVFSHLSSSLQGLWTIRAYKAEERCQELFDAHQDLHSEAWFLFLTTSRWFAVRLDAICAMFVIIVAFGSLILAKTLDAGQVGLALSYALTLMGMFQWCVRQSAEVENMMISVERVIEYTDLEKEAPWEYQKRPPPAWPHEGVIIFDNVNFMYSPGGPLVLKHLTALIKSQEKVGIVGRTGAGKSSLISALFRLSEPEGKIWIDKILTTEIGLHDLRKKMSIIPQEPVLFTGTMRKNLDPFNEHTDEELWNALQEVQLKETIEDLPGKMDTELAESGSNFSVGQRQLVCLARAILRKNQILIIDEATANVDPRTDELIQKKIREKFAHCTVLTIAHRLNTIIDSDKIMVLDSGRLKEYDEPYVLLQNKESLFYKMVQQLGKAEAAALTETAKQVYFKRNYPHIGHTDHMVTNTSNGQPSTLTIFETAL

Target: ABCC4 (Homo sapiens, UniProt O15439)
Assay: Inhibition of ATP-dependent [3H]LTC4 transport into plasma membrane vesicles from human platelets
Type: biochemical
Parameters: expressed in transfected cells; host or cells: Chinese hamster lung V79 fibroblasts (V79-ABCC4), inside-out membrane vesicles
Details: for ATP-dep. [^3H]LTC4 Transport (% of control): 100 nM [^3H]LTC4, 3 min at 37° C., absence of GSH, human platelet vesicles

- inhibition at 20 µM (20 μM, vesicles from human platelets): 43%
- ATP-dep. [^3H]LTC4 Transport (% of control) (compound 10 μM): 75 ± 4 % of control
- ATP-dep. [^3H]LTC4 Transport (% of control) (compound 20 μM): 57 ± 4 % of control
SMILES: CC(C)(O)c1ccccc1CC[C@@H](SCC1(CC(=O)O)CC1)c1cccc(/C=C/c2ccc3ccc(Cl)cc3n2)c1 [Montelukast]
